Results reported in patent US6218112A, “Optimization of gene delivery and gene delivery system” (Cobra Therapeutics Limited, priority 1997, dated 2001).

Test: Solubility of complexes prepared with NBC peptides
Settings: without salt at >20 μg/ml

**Q.** Which solubility of complexes does the source give for “NH2-PKKKRKVEKKSPKKAKKPAAKSPAKKAKAVKPK-AAKPKKPKKKRKVEKKSKKAKKPAAC(Acm)--COOH” here?
**A.** insoluble
